The results in this text go back to ChEMBL document CHEMBL2384981, “Synthesis and structure-activity relationships of a novel and selective bone morphogenetic protein receptor (BMP) inhibitor derived from the pyrazolo[1.5-a]pyrimidine scaffold of dorsomorphin: the discovery of ML347 as an ALK2 versus ALK3 selective MLPCN probe” (Bioorg Med Chem Lett, 2013).

Protein sequences, listed by entry. Tags and fused reporters are not part of them. Lines headed by an entry give the natural chain unless they say otherwise; changes in a name come on top.
UniProt Q13131: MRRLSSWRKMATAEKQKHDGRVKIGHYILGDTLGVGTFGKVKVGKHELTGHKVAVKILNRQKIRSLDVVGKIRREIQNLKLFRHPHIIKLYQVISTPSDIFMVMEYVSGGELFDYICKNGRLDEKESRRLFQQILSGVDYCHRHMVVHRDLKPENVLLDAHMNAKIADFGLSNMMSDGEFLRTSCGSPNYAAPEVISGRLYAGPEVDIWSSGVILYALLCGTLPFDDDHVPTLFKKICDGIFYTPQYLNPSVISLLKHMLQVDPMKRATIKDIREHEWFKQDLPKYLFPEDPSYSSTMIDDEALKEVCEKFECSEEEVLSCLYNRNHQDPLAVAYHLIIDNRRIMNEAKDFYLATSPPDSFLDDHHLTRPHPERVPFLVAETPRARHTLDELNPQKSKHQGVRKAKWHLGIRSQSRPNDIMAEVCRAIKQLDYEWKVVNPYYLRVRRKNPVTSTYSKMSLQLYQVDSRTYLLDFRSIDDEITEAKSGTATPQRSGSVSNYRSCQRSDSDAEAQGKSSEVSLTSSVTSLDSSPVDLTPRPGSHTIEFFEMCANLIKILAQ
UniProt P36894: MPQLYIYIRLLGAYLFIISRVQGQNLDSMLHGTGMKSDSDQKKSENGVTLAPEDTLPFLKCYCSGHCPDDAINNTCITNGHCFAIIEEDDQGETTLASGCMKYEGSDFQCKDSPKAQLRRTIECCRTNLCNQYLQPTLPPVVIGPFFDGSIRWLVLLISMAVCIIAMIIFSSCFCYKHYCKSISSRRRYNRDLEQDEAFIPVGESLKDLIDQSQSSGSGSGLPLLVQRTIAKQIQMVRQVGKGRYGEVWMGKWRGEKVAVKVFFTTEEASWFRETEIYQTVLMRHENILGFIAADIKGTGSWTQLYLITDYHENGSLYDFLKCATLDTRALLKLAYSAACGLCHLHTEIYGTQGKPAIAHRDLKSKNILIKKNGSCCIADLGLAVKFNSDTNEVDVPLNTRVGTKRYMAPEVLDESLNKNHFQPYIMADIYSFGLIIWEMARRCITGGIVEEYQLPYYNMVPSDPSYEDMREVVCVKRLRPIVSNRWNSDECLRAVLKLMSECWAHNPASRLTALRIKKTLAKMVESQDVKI
UniProt P37023, whole entry: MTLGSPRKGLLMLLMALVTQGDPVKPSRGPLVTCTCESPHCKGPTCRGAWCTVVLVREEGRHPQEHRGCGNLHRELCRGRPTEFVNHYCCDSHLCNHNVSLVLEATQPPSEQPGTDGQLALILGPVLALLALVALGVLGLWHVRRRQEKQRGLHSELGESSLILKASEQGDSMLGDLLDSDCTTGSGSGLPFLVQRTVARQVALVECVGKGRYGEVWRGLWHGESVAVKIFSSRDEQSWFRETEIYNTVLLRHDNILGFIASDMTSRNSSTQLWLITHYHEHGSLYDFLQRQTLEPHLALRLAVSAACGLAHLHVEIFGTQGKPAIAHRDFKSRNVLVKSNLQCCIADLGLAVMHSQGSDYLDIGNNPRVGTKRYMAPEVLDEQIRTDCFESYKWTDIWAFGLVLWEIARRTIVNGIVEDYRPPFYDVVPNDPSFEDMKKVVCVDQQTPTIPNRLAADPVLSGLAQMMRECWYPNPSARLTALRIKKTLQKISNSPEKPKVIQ

The target of assay [1] is 5'-AMP-activated protein kinase catalytic subunit alpha-1 (Homo sapiens, UniProt Q13131). As to the kind of experiment: Inhibition of AMPK (unknown origin). A digest of the protocol: (§1)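 Radiometric in vitro kinase assay on human kinases with 10 μM (33P)γATP.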
Assay [2] concerns the target Bone morphogenetic protein receptor type-1A (Homo sapiens, UniProt P36894). Description: Inhibition of ALK3 (unknown origin). The procedure, abridged: as §1
Assay [3] concerns the target Activin receptor type-1-like (Homo sapiens, UniProt P37023). Description: Inhibition of ALK1 (unknown origin). A digest of the protocol: as §1

pIC50: −log10 of the molar value.

With `c1ccc2c(-c3cnn4cc(-c5ccc(N6CCOCC6)cc5)cnc34)ccnc2c1`, the pIC50 in assay [1] is 5.57. Consider `c1cc(N2CCNCC2)ccc1-c1cnc2c(-c3cn[nH]c3)cnn2c1`, for which the pIC50 in assay [2] and in assay [3] was 7.26 throughout.

By pIC50 is commonly meant the IC50 on a negative log10 scale, so that one unit is a factor of ten. High values mean a low IC50, low ones a high IC50.
